These results are taken from patent US20200347127A1 (CRESCENDO BIOLOGICS, published 2020).

Protein sequences, listed by entry. Tags and fused reporters are not part of them. Residues count along the entry.
UniProt Q16552, 24-155: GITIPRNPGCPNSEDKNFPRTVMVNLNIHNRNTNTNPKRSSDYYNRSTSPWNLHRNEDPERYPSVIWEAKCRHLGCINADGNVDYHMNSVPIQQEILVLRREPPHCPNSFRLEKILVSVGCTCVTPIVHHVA

Read-outs that look alike come from different tables or passages of the source.

Assay [1] has as its target T1, recombinant human IL-17A (human, UniProt Q16552, in part).
T1 construct: Bought recombinant protein (Peprotech AF-200-17); also called Peprotech AF-200-17
The assay is described as follows: competition ELISA, IL-17A binding to coated IL-17RA-Fc.

In assay [2] the target is T1, recombinant human IL-17A. The assay is described as follows: SPR (BIAcore T200), IL-17A coupled to CM5 chip, single-cycle kinetics. (Surface plasmon resonance follows binding to a sensor surface in real time, without labels.)
Assay [3] addresses T1, recombinant human IL-17A. The assay can be described thus: cell-based or functional assay.
Assay [4] addresses T1, recombinant human IL-17A. The assay is described as follows: cell-based or functional assay. The source holds these as a separate data set.
Assay [5] concerns the target T1, recombinant human IL-17A. The assay is described as follows: competition ELISA, IL-17A binding to coated IL-17RA-Fc. The source holds these as a separate data set. On the technique in general: ELISA stands for enzyme-linked immunosorbent assay.
The target of assay [6] is T1, recombinant human IL-17A. The assay is described as follows: SPR (BIAcore T200), IL-17A coupled to CM5 chip, single-cycle kinetics. This is another data set of the same source.

B1: Family 3 (clone 3.1) (VHH)
VHH: QVQLVQSGAEVKKPGASVKVSCKASGYTFTGYYMHWVRQAPGQGLEWMGWINPNSGGTNYAQKFQGRVTMTRDTSISTAYMELSRLRSDDTAVYYCASMDRDYYDTSGYFGWFDSWGQGTLVTVSS
notes: Human single VH domain from the naive in vitro library; also called parent Clone 3.1; VH 3.1.1
In general, IC50 refers to the concentration needed to halve the response being measured. Usually Kd stands for the free concentration of one partner at which half of the binding sites on the other are occupied at equilibrium, for simple one-to-one binding. The koff is the rate constant with which the complex falls apart. As a reminder, the kon is the rate constant with which the complex forms. For the molecule B1, the IC50 in the assay with recombinant human IL-17A [1] and with recombinant human IL-17A [5] was 230 nM each time. Further, the dissociation constant (Kd) with recombinant human IL-17A [2] and in the assay with recombinant human IL-17A [6] was 173 nM in each case. Besides, the koff with recombinant human IL-17A [2] and in the assay with recombinant human IL-17A [6] was 0.00594 s⁻¹ throughout. The association rate constant (kon) with recombinant human IL-17A [2] and with recombinant human IL-17A [6] was 34300 M⁻¹ s⁻¹ throughout. The “Cell assay IC50 (nM), IL-17A-induced IL6 release from HT1080” value with recombinant human IL-17A [3] and with recombinant human IL-17A [4] was > 1000 nM throughout.
